How the values were obtained:
[1] = molecular target: pep54C, cyclic (oxidized) synthetic peptide 54; experiment: SPR; Biacore T200, SA sensor chip; biotinylated synthetic peptides immobilised, antibodies injected at a range of concentrations, 10 µl/min, 298 K; association and dissociation 300 s each; 1:1 binding model, affinity-analysis option
[2] = molecular target: pep50C, cyclic (oxidized) synthetic peptide 50; experiment: as above
A17λ reactibody = assay type: binding, human; conditions: read-out: Kd (BiaCore affinity constant)

| Kd [1] [µM] | Kd [2] [µM] | Molecule | Kd (A17λ reactibody) [µM] |
| --- | --- | --- | --- |
| 4.8 | 2.2 | FabA17λ (Fab of the A17 reactibody with the λ light-chain constant domain) |  |
|  |  | CC(C)C[C@@H]1NC(=O)CNC(=O)[C@H](Cc2c[nH]c3ccccc23)NC(=O)[C@@H]2CCCN2C(=O)[C@H](CC(N)=O)NC(=O)[C@H](CCCNC(=N)N)NC(=O)[C@@H](NC(=O)[C@H](C)NC(=O)CN)CSSC[C@@H](C(=O)NCC(=O)N[C@@H](C)C(=O)N[C@@H](C)C(=O)NCC(=O)N[C@@H](C)C(=O)N[C@@H](CCC(=O)O)C(=O)N[C@@H](CCCCNC(=O)CCCC[C@@H]2SC[C@@H]3NC(=O)N[C@@H]32)C(N)=O)NC(=O)[C@H]([C@@H](C)O)NC1=O [50C] | 2.2 |
|  |  | CC(C)C[C@@H]1NC(=O)CNC(=O)[C@H](Cc2c[nH]c3ccccc23)NC(=O)[C@@H]2CCCN2C(=O)[C@H](CC(N)=O)NC(=O)[C@@H]2CCCN2C(=O)[C@@H](NC(=O)[C@H](C)NC(=O)CN)CSSC[C@@H](C(=O)NCC(=O)N[C@@H](C)C(=O)N[C@@H](C)C(=O)NCC(=O)N[C@@H](C)C(=O)N[C@@H](CCC(=O)O)C(=O)N[C@@H](CCCCNC(=O)CCCC[C@@H]2SC[C@@H]3NC(=O)N[C@@H]32)C(N)=O)NC(=O)[C@H](CC(C)C)NC1=O [54C] | 4.8 |

Source: article PMC3949517 (Acta Crystallographica Section D: Biological Crystallography, 2014)
